The structures appear in SMILES notation.

Sequences of proteins named here, by UniProt entry; tags and fusion partners are left off. Residues count along the entry.
UniProt P56817, 75-416 limits assumed: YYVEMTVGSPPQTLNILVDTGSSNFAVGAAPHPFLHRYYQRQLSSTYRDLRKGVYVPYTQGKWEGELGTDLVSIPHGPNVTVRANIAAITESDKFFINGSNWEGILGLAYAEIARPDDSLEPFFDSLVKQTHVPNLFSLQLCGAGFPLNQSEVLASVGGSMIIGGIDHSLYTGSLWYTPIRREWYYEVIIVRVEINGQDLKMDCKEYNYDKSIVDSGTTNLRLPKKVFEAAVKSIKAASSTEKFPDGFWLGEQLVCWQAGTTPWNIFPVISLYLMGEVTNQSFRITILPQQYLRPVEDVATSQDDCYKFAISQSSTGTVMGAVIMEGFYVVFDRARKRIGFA
UniProt Q9Y5Z0, 63-473 limits assumed: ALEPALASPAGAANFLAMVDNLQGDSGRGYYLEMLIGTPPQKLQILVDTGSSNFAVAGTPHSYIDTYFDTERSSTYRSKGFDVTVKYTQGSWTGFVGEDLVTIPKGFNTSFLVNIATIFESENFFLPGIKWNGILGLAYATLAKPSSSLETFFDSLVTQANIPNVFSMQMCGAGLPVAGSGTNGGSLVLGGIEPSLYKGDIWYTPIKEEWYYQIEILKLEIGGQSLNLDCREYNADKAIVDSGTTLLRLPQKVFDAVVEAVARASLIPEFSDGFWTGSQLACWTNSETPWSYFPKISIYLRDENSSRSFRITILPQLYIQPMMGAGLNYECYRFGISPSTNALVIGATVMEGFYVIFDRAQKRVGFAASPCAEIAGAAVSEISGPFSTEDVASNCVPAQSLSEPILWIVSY

This passage reports Ki results from patent publication US9428476B2, “S-imino-S-oxo-iminothiadiazine compounds as BACE inhibitors, compositions, and their use” (Merck Sharp & Dohme Corp., priority 2013, dated 2016).

Assay [1] concerns the target soluble human BACE1 catalytic domain (Homo sapiens (Human), UniProt P56817). The assay is described as follows: BACE1 HTRF FRET Assay. Conditions: read-out: BACE1 Ki; Ki calculated from IC50 using the Cheng-Prusoff equation; QSY7-APPswe-Eu substrate, pH 5.0. An excerpt: Na^+-Acetate pH 5.0; 1% Brij-35; Glycerol; Dimethyl Sulfoxide (DMSO); Recombinant human soluble BACE1 catalytic domain (>95% pure); APP Swedish mutant peptide substrate (QSY7-APP^swe-Eu): QSY7-EISEVNLDAEFC-Europium-amide.
A homogeneous time-resolved FRET assay can be used to determine IC50 values for inhibitors of the soluble human BACE1 catalytic domain. This assay monitors the increase of 620 nm fluorescence that resulted from BACE1 cleavage of an APPswedish APP^swe mutant peptide FRET substrate (QSY7-EISEVNLDAEFC-Europium-amide). This substrate contains an N-terminal QSY7 moiety that serves as a quencher of the C-terminal Europium fluorophore (620 nm Em). In the absence of enzyme activity, 620 nm fluorescence is low in the assay and increased linearly over 3 hours in the presence of uninhibited BACE1 enzyme Inhibition of BACE1 cleavage of the QSY7-APP^swe-Eu substrate by inhibitors is manifested as a suppression of 620 nm fluorescence.
Varying concentrations of inhibitors at 3× the final desired concentration in a volume of 10 ul are preincubated with purified human BACE1 catalytic domain (3 nM in 10 μl) for 30 minutes at 30° C. in reaction buffer containing 20 mM Na-Acetate pH 5.0, 10% glycerol, 0.1% Brij-35 and 7.5% DSMO. Reactions are initiated by addition of 10 μl of 600 nM QSY7-APP^swe-Eu substrate (200 nM final) to give a final reaction volume of 30 μl in a 384 well Nunc HTRF plate. The reactions are incubated at 30° C. for 1.5 hours. The 620 nm fluorescence is then read on a Rubystar HTRF plate reader (BMG Labtechnologies) using a 50 millisecond delay followed by a 400 millisecond acquisition time window Inhibitor IC50 values are derived from non-linear regression analysis of concentration response curves. Ki values are then calculated from IC50 values using the Cheng-Prusoff equation using a previously determined […] of 8 μM for the QSY7-APP^swe-Eu substrate at BACE1.

The target in assay [2] is purified human autoBACE-2 (Homo sapiens (Human), UniProt Q9Y5Z0). The assay is described as follows: BACE-2 Assay (BACE-HTRF assay). Particulars: read-out: BACE2 Ki; Ki calculated from IC50 using the Cheng-Prusoff equation; QSY7-EISEVNLDAEFC-Eu-amide substrate, pH 5.0. The procedure:
Inhibitor IC50s at purified human autoBACE-2 are determined in a time-resolved endpoint proteolysis assay that measures hydrolysis of the QSY7-EISEVNLDAEFC-Eu-amide FRET peptide substrate (BACE-HTRF assay). BACE-mediated hydrolysis of this peptide results in an increase in relative fluorescence (RFU) at 620 nm after excitation with 320 nm light Inhibitor compounds, prepared at 3× the desired final concentration in 1×BACE assay buffer (20 mM sodium acetate pH 5.0, 10% glycerol, 0.1% Brij-35) supplemented with 7.5% DMSO are pre-incubated with an equal volume of autoBACE-2 enzyme diluted in 1×BACE assay buffer (final enzyme concentration 1 nM) in black 384-well NUNC plates for 30 minutes at 30° C. The assay is initiated by addition of an equal volume of the QSY7-EISEVNLDAEFC-Eu-amide substrate (200 nM final concentration, Km=8 μM […] for autoBACE-2) prepared in 1×BACE assay buffer supplemented with 7.5% DMSO and incubated for 90 minutes at 30° C. DMSO is present at 5% final concentration in the assay. Following laser excitation of sample wells at 320 nm, the fluorescence signal at 620 nm is collected for 400 ms following a 50 μs delay on a RUBYstar HTRF plate reader (BMG Labtechnologies). Raw RFU data is normalized to maximum (1.0 nM BACE/DMSO) and minimum (no enzyme/DMSO) RFU values. IC50, are determined by nonlinear regression analysis (sigmoidal dose response, variable slope) of percent inhibition data with minimum and maximum values set to 0 and 100 percent respectively. Similar IC50s are obtained when using raw RFU data. The Ki values are calculated from the IC50 using the Cheng-Prusoff equation.

By Ki is commonly meant a measure of affinity in units of concentration, obtained from inhibition or displacement. Take `CN=[S@@]1(=O)C[C@@](C)(c2cc(NC(=O)c3ccc(Cl)cn3)ccc2F)NC(=N)N1C`: the inhibition constant (Ki) in assay [1] is 5 nM; in assay [2], 1 nM.
Consider `CN=[S@@]1(=O)C[C@@](C)(c2cc(NC(=O)COC)ccc2F)NC(=N)N1C`, for which the inhibition constant Ki in assay [1] is 189 nM; in assay [2], 23 nM.
As for `CN=[S@@]1(=O)C[C@@](C)(c2cc(NC(=O)c3ccc(F)cn3)ccc2F)NC(=N)N1C`, the inhibition constant (Ki) in assay [1] was 10 nM; in assay [2] it was 2 nM.
On to `CN=[S@]1(=O)C[C@@](C)(c2cc(NC(=O)c3ccc(OC)cn3)ccc2F)NC(=N)N1C`, for which the Ki in assay [1] was 3 nM.
With `CN=[S@@]1(=O)C[C@@](C)(c2cc(NC(=O)c3ccc(OC)cn3)ccc2F)NC(=N)N1C`, the Ki is 19 nM in assay [1] and 12 nM in assay [2].
The corresponding values for `CN=[S@]1(=O)C[C@@](C)(c2cc(NC(=O)c3ccc(Cl)cn3)ccc2F)NC(=N)N1C` are 1 nM and 1 nM.
Turning to `CN=[S@]1(=O)C[C@@](C)(c2cc(NC(=O)c3ccc(F)cn3)ccc2F)NC(=N)N1C`, the Ki in assay [1] is 2 nM; in assay [2], 1 nM.
